We go through 19 molecules from PubChem BioAssay AID1478 (National Center for Advancing Translational Sciences (NCATS), 2009).

Sequences of proteins named here, by UniProt entry; tags and fusion partners are left off. Residues count along the entry.
UniProt P25779, 123-467 limits assumed: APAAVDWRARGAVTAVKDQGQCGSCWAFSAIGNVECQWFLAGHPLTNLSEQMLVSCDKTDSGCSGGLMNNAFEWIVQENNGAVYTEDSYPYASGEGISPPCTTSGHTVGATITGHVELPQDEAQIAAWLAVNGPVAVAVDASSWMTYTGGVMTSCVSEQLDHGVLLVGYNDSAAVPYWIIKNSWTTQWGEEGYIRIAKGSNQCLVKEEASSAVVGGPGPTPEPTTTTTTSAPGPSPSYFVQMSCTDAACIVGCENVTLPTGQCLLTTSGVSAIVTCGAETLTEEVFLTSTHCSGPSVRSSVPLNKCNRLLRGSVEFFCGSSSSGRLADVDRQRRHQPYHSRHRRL

The entries are a selection whose mix differs from that of the whole data set. Some of these compounds have results that are not shown, active ones among them. Active and inactive are the calls of the source. Calls follow the shape of the dose curve; as a rule, active = well fitted inhibition curve with a large enough effect; inconclusive = small, poorly fitted or top-dose-only effect; inactive = flat fitted curve, though single readings scatter.

This experiment deals with Cruzipain (Trypanosoma cruzi) (UniProt P25779). Kind of experiment: qHTS Assay for Promiscuous and Specific Inhibitors of Cruzain (with detergent). Also: nearly all actives have a fitted effect of over 40% in size. The note with it: purified cruzain, Z-FR-AMC fluorescence, 0.01% Triton. As for the experimental part:
Cruzain (3.4.22.51) is a cysteine protease from the tropical parasite Trypanosoma cruzi. Dual qHTS experiment was performed against the NCGC compound collection in order to 1) identify novel inhibitors of the enzyme and 2) profile the compound collection for promiscuous inhibitors operating via colloidal aggregation (by performing detergent-free and detergent-containing comparison screens). Cruzain was assayed by the use of fluorogenic coumarin-based substrate Z-FR-AMC: proteolytic cleavage releases AMC, whose fluorescence is measured at 360 nm excitation and 450 nm emission. Purified cruzain was supplied by the labs of Prof. James McKerrow and Brian Shoichet, UC San Francisco.
This assay had 0.01% Triton X-100 concentration. See also releated assay "qHTS Assay for Promiscuous and Specific Inhibitors of Cruzain (without detergent)" with 0.00005% Triton X-100.
See following references for additional details:
Assay Provider: Shoichet, Brian; University of California, San Fancisco
Screening Center PI: Austin, C.P.
Screening Center: NIH Chemical Genomics Center [NCGC]
Buffer: 100 mM Sodium Acetate, pH 5.5, 5 mM DTT, Triton X-100 concentration: 0.01%.
Buffer in columns 3 and 4 as negative control (no enzyme).
Substrate solution: 2 uM final concentration of Z-FR-AMC (catalog number I-1160, Bachem) dispensed throughout the plate.
Enzyme: 1.5 nM Cruzain final concentration in columns 1, 2, 5-48. Column 1 is neutral (100% activity). Column 2 contained titration of covalent inhibitor K11777, starting concentration 1 mM, then 1:2 dilution in duplicate).
Three uL of enzyme or buffer were dispensed to 1536-well Greiner black solid bottom plates. Compounds and controls (23 nL) were transferred via Kalypsys PinTool. The plates were incubated for 15 min at room temperature, and then 1 uL of substrate solution was added to start the reaction. The plates were immediately transferred to and read 4 times every 30 seconds for 2 min on ViewLux High-throughput CCD imager (Perkin-Elmer) using 360 nm excitation and 450 nm emission fluorescence protocol. The fluorescence intensity difference between the third and the first time points (time lapse of 60 seconds) was used to compute reaction progress.
In general terms: qHTS replaces the single test concentration by a dilution series.
Regarding `CCOc1cccc(C(=O)NCC2(N(C)C)CCCCC2)c1`, the max response, negative = inhibition is inactive: -0.583%. As to `CCN1CCCC(OC(=O)C2(O)c3ccccc3C=Cc3ccccc32)C1` (centres undefined), the max response, negative = inhibition was inactive: 0.79%.

Consider `CN(C)C1CCCC1OC(=O)C(O)(c1ccccc1)c1ccccc1` (centres undefined), for which the max response, negative = inhibition is inactive: 2.1%.

As to `CN(C)C1(CNC(=O)c2ccccc2[N+](=O)[O-])CCCCC1`, the max response, negative = inhibition is inactive: -0.937%. On to `CCCCOc1ccccc1C(=O)NCC1(N(C)C)CCCCC1`, for which the max response, negative = inhibition is inactive: -1.05%.

Turning to `CN(C)C1(CNC(=O)c2cccc(Cl)c2)CCCCC1`, the max response, negative = inhibition is inactive: -1.76%. The value for `CC(C)N1C(=O)CC2(CCN(CCOC(=O)C(O)(c3ccccc3)c3ccccc3)CC2)C1=O` was inactive: 0.359%; that for `CN(C)C1(CNC(=O)c2ccccc2F)CCCCC1` was inactive: 0.12%. The result for `COc1cc(C(=O)NCC2(N(C)C)CCCCC2)cc(OC)c1OC` reads inactive: -0.462%; that for `Cc1cccc(C(=O)NCC2(N(C)C)CCCCC2)c1`, inactive: -1.52%. As to `CC(C)Oc1ccc(C(=O)NCC2(N(C)C)CCCCC2)cc1`, the max response, negative = inhibition was inactive: -0.346%.

As to `CN(C)c1cccc(C(=O)NCC2(N(C)C)CCCCC2)c1`, the max response, negative = inhibition was inactive: 9.79%. The value for `COc1cccc(C(=O)NCC2(N3CCOCC3)CCCCC2)c1` was inactive: 2.23%; that for `CN1CCC[C@H](OC(=O)[C@](O)(c2ccccc2)C2CCCC2)C1` was inactive: 0.0861%. `CN1CC[C@H](OC(=O)[C@](O)(c2ccccc2)C2CCCC2)C1`: the max response, negative = inhibition was inactive: -4.33%. For `O=C(OC1CN2CCC1CC2)C(CO)(c1ccccc1)c1ccccc1` (centres undefined), the max response, negative = inhibition is inactive: 9.54%. Consider `CC(C)COc1ccc(C(=O)NCC2(N(C)C)CCCCC2)cc1`, for which the max response, negative = inhibition is inactive: -3.49%.

For `C=C(C)C#C[C@@](O)(C(=O)OC1CCN(C)CC1)c1ccccc1`, the max response, negative = inhibition is inactive: 0.684%. With `COc1ccc(C(=O)NCC2(N(C)C)CCCCC2)cc1Cl`, the max response, negative = inhibition is inactive: -1.13%.
